# Data taken from paper PMC6968506, “Synthesis, in vitro screening and molecular docking of isoquinolinium-5-carbaldoximes as acetylcholinesterase and butyrylcholinesterase reactivators” (2020).
# By UniProt entry, the sequences of proteins in these tests, tags left out. Residues count along the entry.
# UniProt P06276, 29-602 limits assumed: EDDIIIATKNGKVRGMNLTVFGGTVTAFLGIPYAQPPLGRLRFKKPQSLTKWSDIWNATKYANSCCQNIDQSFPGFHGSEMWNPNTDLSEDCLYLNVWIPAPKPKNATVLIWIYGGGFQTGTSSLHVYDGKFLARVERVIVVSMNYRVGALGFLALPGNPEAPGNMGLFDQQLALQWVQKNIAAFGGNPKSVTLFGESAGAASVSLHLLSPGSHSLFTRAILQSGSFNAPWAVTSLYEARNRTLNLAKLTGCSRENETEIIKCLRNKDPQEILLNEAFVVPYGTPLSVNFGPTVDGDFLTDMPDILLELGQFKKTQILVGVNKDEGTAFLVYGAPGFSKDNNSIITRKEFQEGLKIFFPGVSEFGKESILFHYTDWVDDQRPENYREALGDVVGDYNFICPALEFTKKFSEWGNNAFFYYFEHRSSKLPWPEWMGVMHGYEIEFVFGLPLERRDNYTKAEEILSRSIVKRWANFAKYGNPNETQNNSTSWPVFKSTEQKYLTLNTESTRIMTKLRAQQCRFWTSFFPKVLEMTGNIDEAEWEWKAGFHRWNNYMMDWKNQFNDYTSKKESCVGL
# UniProt P22303, 32-614 limits assumed: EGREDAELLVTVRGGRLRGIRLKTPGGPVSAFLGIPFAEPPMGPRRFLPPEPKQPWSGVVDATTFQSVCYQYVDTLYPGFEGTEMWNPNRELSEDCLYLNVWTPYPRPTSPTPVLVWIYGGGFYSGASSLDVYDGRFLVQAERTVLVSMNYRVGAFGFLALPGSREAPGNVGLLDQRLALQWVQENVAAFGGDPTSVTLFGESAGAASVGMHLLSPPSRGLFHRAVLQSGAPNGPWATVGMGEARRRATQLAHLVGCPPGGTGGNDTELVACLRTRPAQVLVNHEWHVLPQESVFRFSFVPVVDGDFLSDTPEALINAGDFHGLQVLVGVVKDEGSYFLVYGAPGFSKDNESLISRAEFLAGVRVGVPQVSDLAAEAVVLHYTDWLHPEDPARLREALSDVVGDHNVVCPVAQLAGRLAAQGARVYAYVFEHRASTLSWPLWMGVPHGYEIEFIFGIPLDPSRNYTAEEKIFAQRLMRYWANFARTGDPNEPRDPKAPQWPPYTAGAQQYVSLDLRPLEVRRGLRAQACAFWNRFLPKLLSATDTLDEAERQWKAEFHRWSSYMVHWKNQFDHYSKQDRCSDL
# What was measured:
# hBChE = hBChE (Homo sapiens, UniProt P06276); assay: Inhibition assay (Ellman's method), hBChE; conditions: for % of hBChE activity treated with oxime (100 µM): (absorbance of uninhibited enzyme + oxime/absorbance of uninhibited enzyme)*100; for Selectivity index hBChE/hAChE: ratio IC50 hBChE/hAChE; for IC50: read-out: IC50 hBChE ± SEM, Ellman's method, pH 7.4, 37 °C
# hAChE = hAChE (Homo sapiens, UniProt P22303); assay: Inhibition assay (Ellman's method), hAChE; conditions: for % of hAChE activity treated with oxime (100 µM): (absorbance of uninhibited enzyme + oxime/absorbance of uninhibited enzyme)*100; for IC50: read-out: IC50 hAChE ± SEM, Ellman's method, pH 7.4, 37 °C
# [1] = target: Sarin-hBChE (human plasmatic BChE) (Homo sapiens, UniProt P06276); assay: Reactivation of sarin-inhibited hBChE; conditions: 10 min, 37 °C
# [2] = target: VX-hBChE (human plasmatic BChE) (Homo sapiens, UniProt P06276); assay: Reactivation of VX-inhibited hBChE; conditions: 10 min, 37 °C
# [3] = target: Paraoxon-hBChE (human plasmatic BChE) (Homo sapiens, UniProt P06276); assay: Reactivation of paraoxon-inhibited hBChE; conditions: 10 min, 37 °C
# [4] = target: Paraoxon-hAChE (human erythrocyte AChE) (Homo sapiens, UniProt P22303); assay: Reactivation of paraoxon-inhibited hAChE; conditions: 10 min, 37 °C
# [5] = target: human recombinant BChE inhibited by NEMP (VX surrogate) (Homo sapiens, UniProt P06276); assay: Reactivation kinetics, NEMP (VX surrogate)-inhibited BChE
# [6] = target: human recombinant BChE inhibited by NIMP (sarin surrogate) (Homo sapiens, UniProt P06276); assay: Reactivation kinetics, NIMP (sarin surrogate)-inhibited BChE
# [7] = affinity of oxime towards OP-inhibited enzyme
# [8] = second-order reactivation rate constant kr2=kr/KD
SMILES,% of hBChE activity treated with oxime (100 µM) (hBChE),Selectivity index hBChE/hAChE (hBChE),IC50 (hBChE),% of hAChE activity treated with oxime (100 µM) (hAChE),IC50 (hAChE),further results
ON=Cc1cccc2c[n+](CCCCCCCCCC[n+]3ccc4c(C=NO)cccc4c3)ccc12,8%,13.4,1.34 µM,1%,0.1 µM,
NC(=O)c1cc[n+](CCCC[n+]2ccc3c(C=NO)cccc3c2)cc1.[Br-].[Br-],92%,48.4,,37%,,Sarin-hBChE % reactivation ± SD ([1]; oxime 10 µM): 4.2 ± 0.5%; Sarin-hBChE % reactivation ± SD ([1]; oxime 100 µM): 5.9 ± 0.3%; VX-hBChE % reactivation ± SD ([2]; oxime 10 µM): 0%; VX-hBChE % reactivation ± SD ([2]; oxime 100 µM): 6.3 ± 0.6%; Paraoxon-hBChE % reactivation ± SD ([3]; oxime 10 µM): 0%; Paraoxon-hBChE % reactivation ± SD ([3]; oxime 100 µM): 1.1 ± 0.2%
NC(=O)c1cc[n+](CCC[n+]2ccc3c(C=NO)cccc3c2)cc1,,,2470 µM,,116 µM,
ON=Cc1cccc2c[n+](CCCCCCCCCCCC[n+]3ccc4c(C=NO)cccc4c3)ccc12,6%,19.3,1.18 µM,0%,0.061 µM,
C[n+]1ccc2c(C=NO)cccc2c1.[I-],49%,4,,20%,,
ON=Cc1cccc2c[n+](COC[n+]3ccc4c(C=NO)cccc4c3)ccc12,34%,1.2,35.8 µM,26%,30.3 µM,
ON=Cc1cccc2c[n+](CCCCCCCC[n+]3ccc4c(C=NO)cccc4c3)ccc12,9%,1.5,3.52 µM,9%,2.42 µM,
ON=Cc1cccc2c[n+](CCCCCCC[n+]3ccc4c(C=NO)cccc4c3)ccc12,17%,10.4,3.94 µM,5%,0.38 µM,
ON=Cc1cccc2c[n+](CCCCCC[n+]3ccc4c(C=NO)cccc4c3)ccc12,31%,56.1,31.4 µM,5%,0.56 µM,
ON=Cc1cccc2c[n+](CCCC[n+]3ccc4c(C=NO)cccc4c3)ccc12,64%,32.6,122 µM,11%,3.74 µM,Sarin-hBChE % reactivation ± SD ([1]; oxime 10 µM): 4.8 ± 0.8%; Sarin-hBChE % reactivation ± SD ([1]; oxime 100 µM): 17.3 ± 0.8%; VX-hBChE % reactivation ± SD ([2]; oxime 10 µM): 11.5 ± 0.5%; VX-hBChE % reactivation ± SD ([2]; oxime 100 µM): 39.8 ± 0.4%; Paraoxon-hBChE % reactivation ± SD ([3]; oxime 10 µM): 0.2 ± 0.3%; Paraoxon-hBChE % reactivation ± SD ([3]; oxime 100 µM): 3.6 ± 1.0%
NC(=O)c1cc[n+](CCC[n+]2ccc3c(C=NO)cccc3c2)cc1.[Br-].[Br-],97%,21.3,,53%,,Sarin-hBChE % reactivation ± SD ([1]; oxime 10 µM): 4.8 ± 0.2%; Sarin-hBChE % reactivation ± SD ([1]; oxime 100 µM): 7.2 ± 0.5%; VX-hBChE % reactivation ± SD ([2]; oxime 10 µM): 2.0 ± 0.3%; VX-hBChE % reactivation ± SD ([2]; oxime 100 µM): 11.5 ± 1.1%; Paraoxon-hBChE % reactivation ± SD ([3]; oxime 10 µM): 2.0 ± 0.6%; Paraoxon-hBChE % reactivation ± SD ([3]; oxime 100 µM): 2.7 ± 0.5%; Paraoxon-hAChE % reactivation ± SD ([4]; oxime 10 µM): 0.9 ± 0.4%; Paraoxon-hAChE % reactivation ± SD ([4]; oxime 100 µM): 2.1 ± 0.4%
ON=Cc1cccc2c[n+](CCC[n+]3ccc4c(C=NO)cccc4c3)ccc12,67%,8.6,284 µM,34%,32.9 µM,"Sarin-hBChE % reactivation ± SD ([1]; oxime 10 µM): 14.7 ± 0.4%; Sarin-hBChE % reactivation ± SD ([1]; oxime 100 µM): 52.6 ± 1.3%; Kd [5, 7]: 5.3 µM; kr ([5]; reactivity constant): 1.29 min⁻¹; kr2 [5, 8]: 4075 M⁻¹ s⁻¹; VX-hBChE % reactivation ± SD ([2]; oxime 10 µM): 14.3 ± 0.4%; VX-hBChE % reactivation ± SD ([2]; oxime 100 µM): 45.2 ± 0.5%; Kd [6, 7]: 17.4 µM; kr ([6]; reactivity constant): 0.47 min⁻¹; kr2 [6, 8]: 452 M⁻¹ s⁻¹; Paraoxon-hBChE % reactivation ± SD ([3]; oxime 10 µM): 2.0 ± 0.5%; Paraoxon-hBChE % reactivation ± SD ([3]; oxime 100 µM): 10.6 ± 0.5%"
NC(=O)c1cc[n+](CCCCC[n+]2ccc3c(C=NO)cccc3c2)cc1.[Br-].[Br-],88%,151,,19%,,Sarin-hBChE % reactivation ± SD ([1]; oxime 10 µM): 3.9 ± 0.5%; Sarin-hBChE % reactivation ± SD ([1]; oxime 100 µM): 5.3 ± 0.4%; VX-hBChE % reactivation ± SD ([2]; oxime 10 µM): 2.8 ± 0.4%; VX-hBChE % reactivation ± SD ([2]; oxime 100 µM): 11.2 ± 0.4%; Paraoxon-hBChE % reactivation ± SD ([3]; oxime 10 µM): 1.9 ± 0.2%; Paraoxon-hBChE % reactivation ± SD ([3]; oxime 100 µM): 1.9 ± 0.3%
ON=Cc1cccc2c[n+](CCCCCCCCCCC[n+]3ccc4c(C=NO)cccc4c3)ccc12,3%,17.7,1.08 µM,0%,0.061 µM,
ON=Cc1cccc2c[n+](CCCCCCCCC[n+]3ccc4c(C=NO)cccc4c3)ccc12,5%,8.7,1.73 µM,1%,0.2 µM,
C[n+]1ccc2c(C=NO)cccc2c1,,,94 µM,,23.6 µM,
ON=Cc1cccc2c[n+](CCCCC[n+]3ccc4c(C=NO)cccc4c3)ccc12,43%,24.2,77.7 µM,6%,3.21 µM,
NC(=O)c1cc[n+](CCCC[n+]2ccc3c(C=NO)cccc3c2)cc1,,,2700 µM,,55.7 µM,
NC(=O)c1cc[n+](CCCCC[n+]2ccc3c(C=NO)cccc3c2)cc1,,,2140 µM,,14.2 µM,
